Biological target: Histamine H2 receptor (Cavia porcellus, UniProt P47747)
Test: Histamine H2 receptor antagonistic activity
Assay type: functional

The chains behind the UniProt entries cited, without tags or fusion partners.
UniProt P47747, whole entry: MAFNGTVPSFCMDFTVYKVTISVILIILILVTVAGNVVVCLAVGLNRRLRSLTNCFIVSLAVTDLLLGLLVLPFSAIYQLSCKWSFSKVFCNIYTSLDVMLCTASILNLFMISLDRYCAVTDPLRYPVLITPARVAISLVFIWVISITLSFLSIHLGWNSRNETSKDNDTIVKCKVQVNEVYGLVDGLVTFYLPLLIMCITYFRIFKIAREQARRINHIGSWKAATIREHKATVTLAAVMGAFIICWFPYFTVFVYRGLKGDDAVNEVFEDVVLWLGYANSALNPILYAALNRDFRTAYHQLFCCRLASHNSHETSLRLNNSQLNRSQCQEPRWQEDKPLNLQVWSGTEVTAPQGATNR

## CN/C(=N/CCSCc1nc[nH]c1C)NC#N [CIMETIDINE]
  IC50: 14.7 µM
